What was measured:
[1] = dissociation constant was determined
[2] = Inhibitory activity against Serine/Threonine Protein Phosphatase (PP2C)
[3] = Inhibitory activity against Serine/Threonine Protein phosphatase 2C (PP2C)

O=P(O)(O)Oc1ccccc1 showed a pKa [1] of 6.2.
In the case of O=C(O)c1cccc2ccc(CP(=O)(O)O)cc12, the Ki [2] is reported as 48 µM.
O=C(O)c1cccc2ccc(CP(O)(O)=S)cc12 showed a Ki [3] of 15 µM.
